These are literature values, as cited in patent publication EP0325010B1, “Non-digestible fat substitutes of low-caloric value” (ARCO Chemical Technology, L.P., priority 1988, dated 1989).

For this data set the following is noted: rat, in vivo.

With Distearin adipate, the digested result was “almost completely non-digested”.
